Data: US20100221240A1, “Chemically Modified Peptide Analogs” (FRAUNHOFER-GESELLSCHAFT ZUR FORDERUNG DER ANGEWANDTEN …, priority 2004, published 2010)

Experiments:
(human) IAPP receptor [1] = molecular target: T1, (human) IAPP receptor (Homo sapiens, UniProt P30988); assay: IAPP receptor binding test with [125I]-rIAPP on MCF-7 cells; details: displacement of [125I]-rIAPP, 1 h at RT
T1 construct: Specific IAPP receptors are expressed in the MCF-7 cell line; endogenous in cells; host or cells: MCF-7 (human breast cancer cells)
T1 sequence (P30988 25-474): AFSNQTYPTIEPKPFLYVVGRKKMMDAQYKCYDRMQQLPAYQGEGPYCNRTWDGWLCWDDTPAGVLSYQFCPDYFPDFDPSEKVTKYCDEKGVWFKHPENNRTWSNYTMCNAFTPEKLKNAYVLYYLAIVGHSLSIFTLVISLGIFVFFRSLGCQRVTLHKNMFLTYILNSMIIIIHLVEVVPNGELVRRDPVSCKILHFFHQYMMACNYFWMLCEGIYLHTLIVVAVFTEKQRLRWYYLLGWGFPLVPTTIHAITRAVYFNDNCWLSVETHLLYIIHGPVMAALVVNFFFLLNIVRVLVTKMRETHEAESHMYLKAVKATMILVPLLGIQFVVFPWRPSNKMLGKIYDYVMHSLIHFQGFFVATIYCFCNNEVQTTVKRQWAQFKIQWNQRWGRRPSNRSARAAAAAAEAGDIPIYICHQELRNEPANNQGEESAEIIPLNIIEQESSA
Description: To test the effect of the analogs as (human) IAPP receptor agonists, first their receptor binding affinity to cells which express this receptor was tested. One example of such cells is the MCF-7 cell line (Zimmermann, et al., J. Endocrinology (1997), 155, 423-31), which originates from human breast cancer cells. Specific IAPP receptors are expressed in the MCF-7 cell line, for which reason this cell line is widely used for testing IAPP agonists/antagonists.
The receptor binding test was carried out in a manner analogous to that described by Zimmermann, et al., J. Endocrinology (1997) 155, 423-31. The binding of the rat IAPP (rIAPP) sequence labeled with ^125I, which is the strongest receptor ligand known to date, in the presence of IAPP or the IAPP-GI, IAPP-AL, or IAPP-FA peptide analogs was quantitatively determined.

(human) IAPP receptor [2] = molecular target: T1, (human) IAPP receptor; assay: Adenylate cyclase activation test (cAMP Biotrak ELISA) on MCF-7 cells; assay type: cell-based; details: 15 min, 37° C.
Description: To test the agonistic potential of the analogs, their adenylate cyclase activation potential (AC activation) was then tested. It has been shown that several of the receptor-mediated biological effects of IAPP are imparted by adenylate cyclase activation. The AC activation was determined by quantifying the cAMP produced after treating the cells (15 min, 37° C.) with various concentrations of IAPP or the analogs, using the cAMP Biotrak ELISA (Amersham). The test was performed on MCF-7 cells in a manner analogous to that described by Zimmermann, et al., J. Endocrinology (1997) (loc. cit.).

[3] = assay type: physicochemical; details: pH 7.4
Description: a) The sedimentation test was used to investigate the solubility of the analogs compared to IAPP. The quantity of precipitated or soluble peptide was determined as a function of time. In one typical experiment, first a peptide solution at a given concentration (1, 10, or 100 μM) in 10 mM sodium phosphate buffer, pH 7.4 was prepared. Aliquots of this solution were centrifuged at specified times (20200 g, 20 min), and precipitated protein in the pellet and supernatant was quantified using the bicinchonic acid (BCA) protein determination assay. FIG. 1 illustrates several results from this test. […] After 20 h IAPP was completely precipitated; in contrast, the N-methylated IAPP-LA [sic; IAPP-AL], IAPP-GI, and IAPP-AF [sic; IAPP-FA] analogs remained soluble over 14 days, even at a concentration of 100 μM. IAPP completely precipitated after only 2 h under the latter-referenced conditions (100 μM).

RIN5fm cell line = assay type: cell-based
Source text: IAPP amyloid aggregates are cytotoxic for pancreatic β-cells and for many other cells. It is assumed that the cytotoxic effect of IAPP and other amyloid polypeptides is associated with their aggregation to the amyloid. It follows that since the analogs are not amyloidogenic, they should also not be cytotoxic. To test this hypothesis the MTT cytotoxicity test, which is based on the reduction of the dye 3-[4,5-dimethylthiazole-2-yl]-2,5-diphenyltetrazolium bromide (MTT) by “healthy” cells having an intact redox potential, was used (Shearman et al., J. Neurochem. (1995) 65, 218-227; Shearman et al., Proc. Natl. Acad. Sci. USA (1994) 91, 1470-74). The latter is an early indicator of cell viability or damage. It has been shown that the cytotoxic effect of amyloid aggregates, including IAPP, may be quantified by this test. The cell toxicity of IAPP and of the analogs was investigated using the RIN5fm pancreatic cell line as described by Kapurniotu et al., J. Mol. Biol. (2002) 315, 339-350) (FIG. 4). […] After incubation with the cells for approximately 20 h, MTT was added thereto, and after acting for 2 h the MIT reduction potential of the cells was spectrophotometrically determined. […]

RIN5fm cells = assay: Apoptosis ELISA (cell death detection kit, cytosolic nucleosomes); assay type: cell-based
Description: In the second test, the effect of IAPP-GI on apoptotic β-cell death caused by IAPP amyloid was investigated (it is known that IAPP-mediated cell death is caused primarily by apoptosis). To this end, solutions of IAPP alone and in the presence of IAPP-GI (1:1) (5 μM in 10 mM sodium phosphate buffer, pH 7.4) were prepared, and were incubated with the plated cells at a final concentration of 500 nM for 20 h. The apoptosis was then quantified by use of a commercial apoptosis ELISA (cell death detection kit from Roche). The cytosolic nucleosomes, which are an early and specific indicator of apoptotic cell death, were quantified by use of this ELISA assay.

| AC activation potential compared with IAPP ((human) IAPP receptor [2]) | agonist character at the IAPP receptor ((human) IAPP receptor [2]) | rank of agonist potency among analogs tested ((human) IAPP receptor [2]) | time over which peptide remained soluble [3] [days] | SMILES | rank of receptor affinity among analogs tested ((human) IAPP receptor [1]) | rank as inhibitor of IAPP cytotoxicity among analogs tested (RIN5fm cell line) | effect on IAPP-induced apoptotic β-cell death (RIN5fm cells; IAPP with IAPP-GI 1:1, final concentration 500 nM, 20 h) | cytotoxicity of the analog alone in the apoptosis assay (RIN5fm cells; IAPP-GI alone, same conditions, RIN5fm cells) |
| --- | --- | --- | --- | --- | --- | --- | --- | --- |
| better AC activation ligand than IAPP | full IAPP agonists | most potent agonist | ≥ 14 | CC[C@H](C)[C@H](NC(=O)[C@H](C)N(C)C(=O)CNC(=O)[C@H](Cc1ccccc1)NC(=O)[C@H](CC(N)=O)NC(=O)[C@H](CC(N)=O)NC(=O)[C@H](CO)NC(=O)[C@H](CO)NC(=O)[C@H](Cc1c[nH]cn1)NC(=O)[C@@H](NC(=O)[C@H](CC(C)C)NC(=O)[C@H](Cc1ccccc1)NC(=O)[C@H](CC(N)=O)NC(=O)[C@H](C)NC(=O)[C@H](CC(C)C)NC(=O)[C@H](CCCNC(=N)N)NC(=O)[C@H](CCC(N)=O)NC(=O)[C@@H](NC(=O)[C@H](C)NC(=O)[C@@H]1CSSC[C@H](NC(=O)[C@@H](N)CCCCN)C(=O)N[C@@H](CC(N)=O)C(=O)N[C@@H]([C@@H](C)O)C(=O)N[C@@H](C)C(=O)N[C@@H]([C@@H](C)O)C(=O)N1)[C@@H](C)O)C(C)C)C(=O)N(C)[C@@H](CC(C)C)C(=O)N[C@@H](CO)C(=O)N[C@@H](CO)C(=O)N[C@H](C(=O)N[C@@H](CC(N)=O)C(=O)N[C@H](C(=O)NCC(=O)N[C@@H](CO)C(=O)N[C@@H](CC(N)=O)C(=O)N[C@H](C(=O)N[C@@H](Cc1ccc(O)cc1)C(N)=O)[C@@H](C)O)C(C)C)[C@@H](C)O [IAPP-AL, [(N-Me)A^25, (N-Me)L^27]-IAPP] | highest receptor affinity |  |  |  |
| the same AC activation potential as-IAPP | full IAPP agonists |  | ≥ 14 | CC[C@H](C)[C@H](NC(=O)[C@H](C)N(C)C(=O)CNC(=O)[C@H](Cc1ccccc1)N(C)C(=O)[C@H](CC(N)=O)NC(=O)[C@H](CC(N)=O)NC(=O)[C@H](CO)NC(=O)[C@H](CO)NC(=O)[C@H](Cc1c[nH]cn1)NC(=O)[C@@H](NC(=O)[C@H](CC(C)C)NC(=O)[C@H](Cc1ccccc1)NC(=O)[C@H](CC(N)=O)NC(=O)[C@H](C)NC(=O)[C@H](CC(C)C)NC(=O)[C@H](CCCNC(=N)N)NC(=O)[C@H](CCC(N)=O)NC(=O)[C@@H](NC(=O)[C@H](C)NC(=O)[C@@H]1CSSC[C@H](NC(=O)[C@@H](N)CCCCN)C(=O)N[C@@H](CC(N)=O)C(=O)N[C@@H]([C@@H](C)O)C(=O)N[C@@H](C)C(=O)N[C@@H]([C@@H](C)O)C(=O)N1)[C@@H](C)O)C(C)C)C(=O)N[C@@H](CC(C)C)C(=O)N[C@@H](CO)C(=O)N[C@@H](CO)C(=O)N[C@H](C(=O)N[C@@H](CC(N)=O)C(=O)N[C@H](C(=O)NCC(=O)N[C@@H](CO)C(=O)N[C@@H](CC(N)=O)C(=O)N[C@H](C(=O)N[C@@H](Cc1ccc(O)cc1)C(N)=O)[C@@H](C)O)C(C)C)[C@@H](C)O [IAPP-FA, [(N-Me)F^23, (N-Me)A^25]-IAPP] |  |  |  |  |

| SMILES | AC activation potential compared with IAPP ((human) IAPP receptor [2]) | agonist character at the IAPP receptor ((human) IAPP receptor [2]) | rank of agonist potency among analogs tested ((human) IAPP receptor [2]) | time over which peptide remained soluble [3] [days] | rank of receptor affinity among analogs tested ((human) IAPP receptor [1]) | rank as inhibitor of IAPP cytotoxicity among analogs tested (RIN5fm cell line) | effect on IAPP-induced apoptotic β-cell death (RIN5fm cells; IAPP with IAPP-GI 1:1, final concentration 500 nM, 20 h) | cytotoxicity of the analog alone in the apoptosis assay (RIN5fm cells; IAPP-GI alone, same conditions, RIN5fm cells) |
| --- | --- | --- | --- | --- | --- | --- | --- | --- |
| CC[C@H](C)[C@@H](C(=O)N[C@@H](CC(C)C)C(=O)N[C@@H](CO)C(=O)N[C@@H](CO)C(=O)N[C@H](C(=O)N[C@@H](CC(N)=O)C(=O)N[C@H](C(=O)NCC(=O)N[C@@H](CO)C(=O)N[C@@H](CC(N)=O)C(=O)N[C@H](C(=O)N[C@@H](Cc1ccc(O)cc1)C(N)=O)[C@@H](C)O)C(C)C)[C@@H](C)O)N(C)C(=O)[C@H](C)NC(=O)CN(C)C(=O)[C@H](Cc1ccccc1)NC(=O)[C@H](CC(N)=O)NC(=O)[C@H](CC(N)=O)NC(=O)[C@H](CO)NC(=O)[C@H](CO)NC(=O)[C@H](Cc1c[nH]cn1)NC(=O)[C@@H](NC(=O)[C@H](CC(C)C)NC(=O)[C@H](Cc1ccccc1)NC(=O)[C@H](CC(N)=O)NC(=O)[C@H](C)NC(=O)[C@H](CC(C)C)NC(=O)[C@H](CCCNC(=N)N)NC(=O)[C@H](CCC(N)=O)NC(=O)[C@@H](NC(=O)[C@H](C)NC(=O)[C@@H]1CSSC[C@H](NC(=O)[C@@H](N)CCCCN)C(=O)N[C@@H](CC(N)=O)C(=O)N[C@@H]([C@@H](C)O)C(=O)N[C@@H](C)C(=O)N[C@@H]([C@@H](C)O)C(=O)N1)[C@@H](C)O)C(C)C [IAPP-GI, [(N-Me)G^24, (N-Me)I^26]-IAPP] | weaker agonist than IAPP | full IAPP agonists |  | ≥ 14 | weakest | most potent inhibitor of IAPP cytotoxicity | able to protect pancreatic β-cells from IAPP-induced apoptotic cell death | no cytotoxicity |
